Values of other authors in patent EP0117302A2, “Phenothiazine derivatives” (THE WELLCOME FOUNDATION LIMITED, priority 1982, dated 1984).

Tested on: histamine
Conditions: literature value (R.B. Barlow, Introduction to Chemical Pharmacology, 1964); 60 min; cited from earlier work

SMILES: CC(CN1c2ccccc2Sc2ccccc21)N(C)C (stereo not shown) [Promethazine, 10-(2-dimethylaminopropyl)phenothiazine]
- pA2: 8.9*

Marks after values point to notes of the source that are not given here.
